{"source": "patent US20100222282A1", "about": "“METHOD OF DIAGNOSIS AND METHOD OF TREATMENT” (ENTRESS AB, priority 2006, published 2010)", "key": {"in vivo": {"assay": "in vivo", "conditions": "for AKG Day 1 (blood, individual rats): beginning of the experiment; for AKG Day 1 (blood, individual rats) / concentration at 1 day: baseline; for concentration at 56 day / concentration at 1 day: Sprague-Dawley, rat, in vivo; for concentration at 1 day: Average AKG blood level before the experiment (Day 1)", "from_the_text": "(§1) The aim of this experiment was to study the relationship between the blood level of AKG and survival of elderly rats. Forty Sprague-Dawley rats randomly chosen (2-3 years old) from the Department of Cell & Organisms Biology in Lund University were used in the experiment. The rats were divided into four groups, 10 rats each, two control groups and two experiment groups. […] The mixtures were titrated with 0.01 M NaOH to correct the pH.\n(§2) Blood samples were taken at the beginning of the experiment from all rats and blood AKG levels were estimated. Experimental time was 8 weeks and parameters as AKG blood levels and survival were monitored."}, "[1]": {"test_system": "Sprague-Dawley rats (2-3 years old)", "conditions": "8 weeks; for Number of dead animals: oral, 10 elderly rats", "from_the_text": "as §1, §2"}}, "note": "Values joined by “and” are separate entries in the source; they are usually repeats but may differ in a detail not shown here. Identical values can stand only once. Like-named read-outs stand apart in the source and are kept apart here.", "data": [{"smiles": "O=C([O-])CCC(=O)C(=O)[O-].[Na+].[Na+]", "note": "[Na2AKG * 2H2O, sodium alpha-ketoglutarate]", "values": [{"measurement": "AKG Day 1 (blood, individual rats)", "setting": "in vivo; Experiment Group I (2.28 g)", "value": "0.34 µg/mL and 0.31 µg/mL and <0.1 µg/mL and 0.2 µg/mL and 0.54 µg/mL and 0.32 µg/mL and 0.15 µg/mL and 0.6 µg/mL"}, {"measurement": "AKG Day 56 (blood, individual rats)", "setting": "in vivo; Experiment Group I (2.28 g), end of the experiment", "value": "0.75 μg/ml and 0.82 μg/ml and 0.78 μg/ml and 1.04 μg/ml and 0.7 μg/ml and 0.6 μg/ml (2×) and 0.9 μg/ml"}, {"measurement": "AKG Day 1 (blood, individual rats)", "setting": "in vivo; Experiment Group II (22.8 g)", "value": "0.34 µg/mL and 0.24 µg/mL and 0.23 µg/mL and 0.75 µg/mL and 0.5 µg/mL and 0.42 µg/mL and 0.25 µg/mL and 015 µg/mL"}, {"measurement": "AKG Day 56 (blood, individual rats)", "setting": "in vivo; Experiment Group II (22.8 g), end of the experiment", "value": "1.5 μg/ml and 0.98 μg/ml and 0.89 μg/ml and 0.7 μg/ml and 1.4 μg/ml and 1.11 μg/ml and 1.07 μg/ml and 0.95 μg/ml (2×) and 0.97 μg/ml"}, {"measurement": "concentration at 56 day", "setting": "in vivo; 2.28 g", "value": "800 ± 140", "unit": "ng/mL"}, {"measurement": "concentration at 56 day", "setting": "in vivo; 2.28 g, AKG Day 56 (blood, individual rats), Experiment Group I (2.28 g), end of the experiment", "value": 950, "unit": "ng/mL"}, {"measurement": "concentration at 1 day", "setting": "in vivo; 2.28 g, Experiment Group I (2.28 g)", "value": "290 ± 160", "unit": "ng/mL"}, {"measurement": "concentration at 56 day", "setting": "in vivo; 22.8 g", "value": "1050 ± 230", "unit": "ng/mL"}, {"measurement": "concentration at 1 day", "setting": "in vivo; 22.8 g, Experiment Group II (22.8 g)", "value": "330 ± 180", "unit": "ng/mL"}, {"measurement": "concentration at 56 day", "setting": "in vivo; po, Blood level of AKG restored by oral administration, elderly rats (over 24 months)", "value": "~1000", "unit": "ng/mL"}, {"measurement": "Number of dead animals", "setting": "[1]; Experiment Group I, Na2AKG * 2H2O (2.28 g)", "value": 0}, {"measurement": "Number of dead animals", "setting": "[1]; Experiment Group II, Na2AKG * 2H2O (22.8 g)", "value": 0}, {"measurement": "Survival rate of the rats in the experimental groups", "setting": "[1]; elderly rats", "value": "drastically improved"}]}]}
